Reference: article PMC6571122 (Journal of medicinal chemistry, 2019)

Tests used:
T. gondii DHFR (TgDHFR) = target: T1, T. gondii DHFR (TgDHFR) (Toxoplasma gondii, UniProt Q07422); conditions: for fold more selective for TgDHFR relative to 1 / fold more potent for TgDHFR relative to 1: relative to pyrimethamine 1
T1 sequence (Q07422 1-610): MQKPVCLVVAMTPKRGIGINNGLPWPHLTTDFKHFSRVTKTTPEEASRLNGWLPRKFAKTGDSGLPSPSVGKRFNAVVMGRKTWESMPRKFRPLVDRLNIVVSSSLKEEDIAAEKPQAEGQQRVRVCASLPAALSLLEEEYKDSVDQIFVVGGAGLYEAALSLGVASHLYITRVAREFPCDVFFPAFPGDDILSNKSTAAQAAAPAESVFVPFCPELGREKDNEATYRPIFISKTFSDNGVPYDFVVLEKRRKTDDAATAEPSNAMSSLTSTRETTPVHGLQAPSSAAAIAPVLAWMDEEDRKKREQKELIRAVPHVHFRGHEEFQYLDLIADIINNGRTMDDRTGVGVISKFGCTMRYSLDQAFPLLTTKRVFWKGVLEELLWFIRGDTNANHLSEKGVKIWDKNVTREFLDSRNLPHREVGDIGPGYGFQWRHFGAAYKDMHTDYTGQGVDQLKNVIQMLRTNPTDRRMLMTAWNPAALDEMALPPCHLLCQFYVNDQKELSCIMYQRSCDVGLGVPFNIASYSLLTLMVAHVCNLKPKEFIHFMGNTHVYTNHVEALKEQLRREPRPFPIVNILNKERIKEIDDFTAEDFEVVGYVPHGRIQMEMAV

MDR1 = test: in vitro; conditions: dog, MDCK-MDR1
[1] = system: type I RH strain of T. gondii

Structure (SMILES)	fold more selective for TgDHFR relative to 1 (T. gondii DHFR (TgDHFR))	fold more potent for TgDHFR relative to 1 (T. gondii DHFR (TgDHFR))	efflux ratio at 0.25 h, 2 µM (MDR1)	Selectivity Index (hDHFR IC50/TgDHFR IC50) (T. gondii DHFR (TgDHFR); hDHFR IC50/TgDHFR IC50)	Selectivity Index (MCF-7 EC50/Tg cell-based EC50) [1]
Nc1ncc(N2CCN(c3cccc(-c4cncnc4)c3)CC2)c(N)n1 [Compound 26, 5-(4-(3-(Pyrimidin-5-yl)phenyl)piperazin-1-yl)pyrimidine-2,4-diamine]	25 fold	–	–	–	–
Nc1ncc(N2CCN(c3cccc(-c4ccccc4)c3)CC2)c(N)n1 [Compound 2]	6.6 fold	16 fold	–	–	–
COc1ncc(-c2cccc(N3CCN(c4cnc(N)nc4N)CC3)c2)cn1 [Compound 3]	16 fold	89 fold	1.1	200	560
